Where two headings read alike, the source gives them in different places.
Columns and labels:
[1] = molecular target: T1, CRF2R (Homo sapiens, UniProt Q13324); assay: CRF2R agonist activity (EC50, Emax), called comparative CRF binding; type: cell-based
T1 sequence (Q13324 1-411): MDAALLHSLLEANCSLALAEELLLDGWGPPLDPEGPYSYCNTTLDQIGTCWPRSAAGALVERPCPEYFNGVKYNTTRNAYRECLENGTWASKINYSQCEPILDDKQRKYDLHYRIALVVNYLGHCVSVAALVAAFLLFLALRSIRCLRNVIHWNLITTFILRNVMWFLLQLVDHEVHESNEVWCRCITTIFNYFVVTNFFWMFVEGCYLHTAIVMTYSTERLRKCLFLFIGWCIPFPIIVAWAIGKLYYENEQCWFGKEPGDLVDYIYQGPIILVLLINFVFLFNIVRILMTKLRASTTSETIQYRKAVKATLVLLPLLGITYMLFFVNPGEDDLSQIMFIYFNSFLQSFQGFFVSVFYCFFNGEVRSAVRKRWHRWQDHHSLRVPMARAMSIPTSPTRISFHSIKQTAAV
How it was run: (§1)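 Recombinant CRF1R or CRF2R cells were exposed to peptide. Reporter expression linked to cAMP response element was then quantitated, relative to vehicle control.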

[2] = molecular target: T2, CRF1R (Homo sapiens, UniProt P34998); assay: CRF1R agonist activity (EC50, Emax), called comparative CRF binding; type: cell-based
T2 sequence (P34998 24-415): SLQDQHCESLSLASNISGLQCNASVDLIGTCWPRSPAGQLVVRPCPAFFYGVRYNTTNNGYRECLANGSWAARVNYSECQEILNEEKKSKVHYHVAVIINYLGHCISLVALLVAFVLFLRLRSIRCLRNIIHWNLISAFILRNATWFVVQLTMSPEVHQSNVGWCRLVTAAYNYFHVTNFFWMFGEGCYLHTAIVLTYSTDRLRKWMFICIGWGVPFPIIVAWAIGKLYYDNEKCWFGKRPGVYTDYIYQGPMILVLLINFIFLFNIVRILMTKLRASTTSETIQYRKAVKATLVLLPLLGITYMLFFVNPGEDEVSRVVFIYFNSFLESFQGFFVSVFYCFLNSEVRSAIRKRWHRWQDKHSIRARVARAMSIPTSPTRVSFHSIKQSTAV
How it was run: as §1

| SMILES | EC50 [1] [nM] | EC50 [2] [nM] | EC50 ([1]; read-out: CRF2R EC50) [nM] | EC50 ([2]; read-out: CRF1R EC50) [nM] |
| --- | --- | --- | --- | --- |
| CC[C@H](C)[C@H](NC(=O)[C@H](CCCNC(=N)N)NC(=O)[C@H](C)NC(=O)[C@H](CC(N)=O)NC(=O)[C@@H](NC(=O)[C@@H](NC(=O)[C@H](C)NC(=O)[C@H](CCC(N)=O)NC(=O)[C@H](CCC(N)=O)NC(=O)[C@H](CCCCN)NC(=O)[C@H](CCC(=O)O)NC(=O)[C@H](CCCCN)NC(=O)[C@H](CCC(=O)O)NC(=O)[C@H](CCC(N)=O)NC(=O)[C@H](CCCCN)NC(=O)[C@H](CCC(=O)O)NC(=O)[C@@H](NC(=O)[C@H](CCC(=O)O)NC(=O)[C@@H](NC(=O)[C@H](CCSC)NC(=O)[C@H](CCCCN)NC(=O)[C@H](CCCNC(=N)N)NC(=O)[C@H](CC(C)C)NC(=O)[C@H](CC(C)C)NC(=O)[C@H](CCC(N)=O)NC(=O)[C@H](Cc1ccccc1)NC(=O)[C@@H]1CCCN1C(=O)[C@@H](NC(=O)[C@H](CC(=O)O)NC(=O)[C@@H](NC(=O)[C@H](CO)NC(=O)[C@@H](NC(=O)[C@@H]1CCCN1C(=O)[C@@H]1CCCN1C(=O)CNC(=O)[C@@H]1CCC(=O)N1)[C@@H](C)CC)[C@@H](C)CC)C(C)C)[C@@H](C)CC)[C@@H](C)CC)[C@@H](C)O)[C@@H](C)O)C(=O)N[C@@H](CC(C)C)C(=O)N[C@@H](C)C(=O)N[C@@H](CCCNC(=N)N)C(=O)N[C@H](C(N)=O)C(C)C [compound 172] | 13.5 | ≥ 1000 | – | – |
| CC[C@H](C)[C@H](NC(=O)[C@@H](NC(=O)[C@H](CC(=O)O)NC(=O)[C@H](CC(C)C)NC(=O)[C@H](CC(C)C)NC(=O)[C@H](CC(C)C)NC(=O)[C@H](CCCNC(=N)N)NC(=O)[C@H](CC(N)=O)NC(=O)[C@H](CC(N)=O)NC(=O)[C@H](C)NC(=O)[C@H](C)NC(=O)[C@H](CCC(N)=O)NC(=O)[C@H](CCC(N)=O)NC(=O)[C@H](CCCCN)NC(=O)[C@H](CCC(=O)O)NC(=O)[C@H](CCCCN)NC(=O)[C@H](CCC(=O)O)NC(=O)[C@H](CCC(N)=O)NC(=O)[C@H](CCCCN)NC(=O)[C@H](CCC(=O)O)NC(=O)[C@@H](NC(=O)[C@H](CCC(=O)O)NC(=O)[C@@H](NC(=O)[C@H](CCSC)NC(=O)[C@H](CCCCN)NC(=O)[C@H](CCCNC(=N)N)NC(=O)[C@H](CC(C)C)NC(=O)[C@H](CC(C)C)NC(=O)[C@H](Cc1c[nH]c2ccccc12)NC(=O)[C@H](Cc1c[nH]cn1)NC(=O)[C@@H]1CCCN1C(=O)[C@H](CC(C)C)NC(=O)[C@H](CC(=O)O)NC(=O)[C@@H](NC(=O)[C@H](CO)NC(=O)[C@@H](NC(=O)[C@@H]1CCCN1C(=O)[C@@H]1CCCN1C(=O)CNC(=O)[C@@H]1CCC(=O)N1)[C@@H](C)CC)[C@@H](C)CC)[C@@H](C)CC)[C@@H](C)CC)[C@@H](C)O)C(N)=O [compound 186] | 25.1 | 323 | – | – |
| CC[C@H](C)[C@H](NC(=O)[C@@H](NC(=O)[C@H](CC(=O)O)NC(=O)[C@H](CC(C)C)NC(=O)[C@H](CC(C)C)NC(=O)[C@H](CC(C)C)NC(=O)[C@H](CCCNC(=N)N)NC(=O)[C@H](CC(N)=O)NC(=O)[C@H](CC(N)=O)NC(=O)[C@H](C)NC(=O)[C@H](C)NC(=O)[C@H](CCC(N)=O)NC(=O)[C@H](CCC(N)=O)NC(=O)[C@H](CCCCN)NC(=O)[C@H](CCC(=O)O)NC(=O)[C@H](CCCCN)NC(=O)[C@H](CCC(=O)O)NC(=O)[C@H](CCC(N)=O)NC(=O)[C@H](CCCCN)NC(=O)[C@H](CCC(=O)O)NC(=O)[C@@H](NC(=O)[C@H](CCC(=O)O)NC(=O)[C@@H](NC(=O)[C@H](CCSC)NC(=O)[C@H](CCCCN)NC(=O)[C@H](CCCNC(=N)N)NC(=O)[C@H](CC(C)C)NC(=O)[C@H](CC(C)C)NC(=O)[C@H](Cc1ccccc1)NC(=O)[C@H](Cc1c[nH]c2ccccc12)NC(=O)[C@@H]1CCCN1C(=O)[C@H](CC(C)C)NC(=O)[C@H](CC(=O)O)NC(=O)[C@@H](NC(=O)[C@H](CO)NC(=O)[C@@H](NC(=O)[C@@H]1CCCN1C(=O)[C@@H]1CCCN1C(=O)CNC(=O)[C@@H]1CCC(=O)N1)[C@@H](C)CC)[C@@H](C)CC)[C@@H](C)CC)[C@@H](C)CC)[C@@H](C)O)C(N)=O [compound 187] | 10.3 | 31.6 | – | – |
| CC[C@H](C)[C@H](NC(=O)[C@@H](NC(=O)[C@H](CC(=O)O)NC(=O)[C@H](CC(C)C)NC(=O)[C@H](CC(C)C)NC(=O)[C@H](CC(C)C)NC(=O)[C@H](CCCNC(=N)N)NC(=O)[C@H](CC(N)=O)NC(=O)[C@H](CC(N)=O)NC(=O)[C@H](C)NC(=O)[C@H](C)NC(=O)[C@H](CCC(N)=O)NC(=O)[C@H](CCC(N)=O)NC(=O)[C@H](CCCCN)NC(=O)[C@H](CCC(=O)O)NC(=O)[C@H](CCCCN)NC(=O)[C@H](CCC(=O)O)NC(=O)[C@H](CCC(N)=O)NC(=O)[C@H](CCCCN)NC(=O)[C@H](CCC(=O)O)NC(=O)[C@@H](NC(=O)[C@H](CCC(=O)O)NC(=O)[C@@H](NC(=O)[C@H](CCSC)NC(=O)[C@H](CCCCN)NC(=O)[C@H](CCCNC(=N)N)NC(=O)[C@H](CC(C)C)NC(=O)[C@H](CC(C)C)NC(=O)[C@H](CC(C)C)NC(=O)[C@H](CC(C)C)NC(=O)[C@@H]1CCCN1C(=O)[C@H](CC(C)C)NC(=O)[C@H](CC(=O)O)NC(=O)[C@@H](NC(=O)[C@H](CO)NC(=O)[C@@H](NC(=O)[C@@H]1CCCN1C(=O)[C@@H]1CCCN1C(=O)CNC(=O)[C@@H]1CCC(=O)N1)[C@@H](C)CC)[C@@H](C)CC)[C@@H](C)CC)[C@@H](C)CC)[C@@H](C)O)C(N)=O [compound 188] | – | – | 14.6 | 162 |
| CC[C@H](C)[C@H](NC(=O)[C@@H](NC(=O)[C@H](CC(=O)O)NC(=O)[C@H](CC(C)C)NC(=O)[C@H](CC(C)C)NC(=O)[C@H](CC(C)C)NC(=O)[C@H](CCCNC(=N)N)NC(=O)[C@H](CC(N)=O)NC(=O)[C@H](CC(N)=O)NC(=O)[C@H](C)NC(=O)[C@H](C)NC(=O)[C@H](CCC(N)=O)NC(=O)[C@H](CCC(N)=O)NC(=O)[C@H](CCCCN)NC(=O)[C@H](CCC(=O)O)NC(=O)[C@H](CCCCN)NC(=O)[C@H](CCC(=O)O)NC(=O)[C@H](CCC(N)=O)NC(=O)[C@H](CCCCN)NC(=O)[C@H](CCC(=O)O)NC(=O)[C@@H](NC(=O)[C@H](CCC(=O)O)NC(=O)[C@@H](NC(=O)[C@H](CCSC)NC(=O)[C@H](CCCCN)NC(=O)[C@H](CCCNC(=N)N)NC(=O)[C@H](CC(C)C)NC(=O)[C@H](CC(C)C)NC(=O)[C@@H](NC(=O)[C@H](Cc1ccccc1)NC(=O)[C@@H]1CCCN1C(=O)[C@H](CC(C)C)NC(=O)[C@H](CC(=O)O)NC(=O)[C@@H](NC(=O)[C@H](CO)NC(=O)[C@@H](NC(=O)[C@@H]1CCCN1C(=O)[C@@H]1CCCN1C(=O)CNC(=O)[C@@H]1CCC(=O)N1)[C@@H](C)CC)[C@@H](C)CC)[C@@H](C)CC)[C@@H](C)CC)[C@@H](C)CC)[C@@H](C)O)C(N)=O [compound 189] | 7 | 62.2 | – | – |
| CC[C@H](C)[C@H](NC(=O)[C@@H](NC(=O)[C@H](CC(=O)O)NC(=O)[C@H](CC(C)C)NC(=O)[C@H](CC(C)C)NC(=O)[C@H](CC(C)C)NC(=O)[C@H](CCCNC(=N)N)NC(=O)[C@H](CC(N)=O)NC(=O)[C@H](CC(N)=O)NC(=O)[C@H](C)NC(=O)[C@H](C)NC(=O)[C@H](CCC(N)=O)NC(=O)[C@H](CCC(N)=O)NC(=O)[C@H](CCCCN)NC(=O)[C@H](CCC(=O)O)NC(=O)[C@H](CCCCN)NC(=O)[C@H](CCC(=O)O)NC(=O)[C@H](CCC(N)=O)NC(=O)[C@H](CCCCN)NC(=O)[C@H](CCC(=O)O)NC(=O)[C@@H](NC(=O)[C@H](CCC(=O)O)NC(=O)[C@@H](NC(=O)[C@H](CCSC)NC(=O)[C@H](CCCCN)NC(=O)[C@H](CCCNC(=N)N)NC(=O)[C@H](CC(C)C)NC(=O)[C@H](CC(C)C)NC(=O)[C@@H](NC(=O)[C@H](Cc1ccccc1)NC(=O)[C@@H]1CCCN1C(=O)[C@H](CC(C)C)NC(=O)[C@H](CC(=O)O)NC(=O)[C@@H](NC(=O)[C@H](CO)NC(=O)[C@@H](NC(=O)[C@@H]1CCCN1C(=O)[C@@H]1CCCN1C(=O)CNC(=O)[C@@H]1CCC(=O)N1)[C@@H](C)CC)[C@@H](C)CC)C(C)C)[C@@H](C)CC)[C@@H](C)CC)[C@@H](C)O)C(N)=O [compound 190] | 39.6 | > 100 | – | – |
